The entries are a selection whose mix differs from that of the whole data set. Active and inactive are the calls of the source.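 The calls were made as follows: active = inhibition above the mean inhibition of all tested compounds plus 3 SD (cut at about 17% in these data); inactive = the rest.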

This experiment addresses Troponin I, cardiac muscle (Homo sapiens) + Troponin T, cardiac muscle (Homo sapiens) + Troponin C, slow skeletal and cardiac muscles (Homo sapiens) (UniProt P19429+P45379+P63316). Nature of the experiment: calcium desensitizers of cardiac thin filaments – biochemical, IANBD-TnC fluorescence, EC70 calcium, primary screen (AID 493244). Conditions: IANBD-labeled cardiac RTF, Ca2+ fluorescence; at 7.15 µM; hits give high values.
Take `CN1CCC(Nc2ccc(F)c(Cl)c2)CC1`: the inhibition was inactive: -3.3%. Under `CCOc1ncccc1C(=O)NCC1(N2CCOCC2)CCCCC1` stands inactive: -6.64%. The result for `O=C(O)C1(Nc2ccccc2)CCN(Cc2ccccc2)CC1` reads inactive: -3.53%.

Turning to `CC(C)(C)OC(=O)N1CCC(Nc2ccccc2)CC1`, the inhibition is inactive: -9.56%. Under `CCCOc1ccc(C(=O)NCC2(N(C)C)CCCCC2)cc1` stands inactive: -6.7%. Under `COc1cc(OC)cc(C(=O)NCC2(N3CCOCC3)CCCCC2)c1` stands inactive: 2.93%; under `COc1cccc(C(=O)N(c2cc(C)cc(C)c2)C2CCN(C(=O)OC(C)(C)C)CC2)c1`, inactive: -8.53%; under `CCC(CO)(C(=O)OC1CN2CCC1CC2)c1ccccc1` (centres undefined), inactive: 7.33%.

Take `CN1CCC(Nc2ccc(Cl)cc2)CC1`: the inhibition is inactive: -0.87%.

For the compound `CC(=O)N(c1ccccc1)C1CCNCC1`, the inhibition was inactive: 0.4%. For `COc1cc(OC)cc(C(=O)NCC2(N3CCCCC3)CCCCC2)c1`, the inhibition is inactive: 3.24%. The result for `Fc1ccccc1NC1CCN(Cc2ccccc2)CC1` reads inactive: -10.8%; that for `Cc1ccc(C(=O)NCC2(N3CCCCC3)CCCCC2)o1`, inactive: -7.5%. The result for `Cc1ccc(NC2(C#N)CCN(Cc3ccccc3)CC2)cc1` reads inactive: -3.19%; that for `CCN1CCC(Nc2cccc(F)c2)CC1`, inactive: -10.8%. The result for `Cc1ccccc1NC1(C#N)CCN(Cc2ccccc2)CC1` reads inactive: -1.78%; that for `Cn1c(=O)[nH]cc(N(CCCl)CCCl)c1=O`, inactive: -6.3%; that for `CN(C)c1ccc(C(=O)NCC2(N3CCCCC3)CCCCC2)cc1`, inactive: -4.29%. Regarding `O=C(NCC1(N2CCCCC2)CCCCC1)c1ccco1`, the inhibition was inactive: -2.03%. The result for `N#Cc1ccc(C(=O)NCC2(N3CCCCC3)CCCCC2)cc1` reads inactive: 1.16%; that for `CC(C)(C)OC(=O)N1CCC(N(C(=O)c2ccccc2)c2ccc(Cl)cc2)CC1`, inactive: 3.03%; that for `CN(C)C1(CNC(=O)c2cccc(C#N)c2)CCCCC1`, inactive: -2.43%. The result for `CCCN1CCC(Nc2cc(OC)cc(OC)c2)CC1` reads inactive: -9.2%; that for `Cc1cc(N(CCCl)CCCl)ccc1C=O`, inactive: 1.14%. Regarding `c1ccc(CN2CCC(Nc3ccccc3)CC2)cc1`, the inhibition was inactive: -1.29%.

Regarding `COc1cc(C(=O)NCC2(N3CCOCC3)CCCCC2)cc(OC)c1C`, the inhibition is inactive: -3.5%.

As for `O=C(NCC1(N2CCOCC2)CCCCC1)c1cc(Br)ccc1Cl`, the inhibition was inactive: 0.94%. `COc1ccc(C(=O)NCC2(N3CCOCC3)CCCCC2)cc1OC`: the inhibition is inactive: 0.49%. Under `CCOC(=O)N1CCC(Nc2ccc(C)cc2)CC1` stands inactive: 2.62%; under `N/C(=N\O)c1c(N)no[n+]1[O-]`, inactive: -8.27%; under `O=C(OC1CN2CCC1CC2)C1c2ccccc2C=Cc2ccccc21` (centres undefined), inactive: 4.82%.

Consider `CC(C)c1ccc(NC2CCN(C(=O)OC(C)(C)C)CC2)cc1`, for which the inhibition is inactive: -15.4%. Turning to `CN(C)c1cccc(C(=O)NCC2(N3CCCCC3)CCCCC2)c1`, the inhibition is inactive: -6.77%. The result for `COc1ccc(CN(CCCl)CCCl)cc1Cl` reads inactive: -1.1%; that for `O=C(NCC1(N2CCOCC2)CCCCC1)c1cc(F)c(F)cc1Cl`, inactive: -2.91%; that for `COc1cc(OC)c(C(=O)NCC2(N(C)C)CCCCC2)cc1OC`, inactive: 5.28%. The result for `O=C(NCC1(N2CCCCC2)CCCCC1)c1cncc(Br)c1` reads inactive: -6.43%; that for `CN1CCC(Nc2cccc(F)c2)CC1`, inactive: -17.9%. The result for `CCCOc1ccc(C(=O)NCC2(N(C)C)CCCCC2)cc1OC` reads inactive: -7%; that for `O=C(NCC1(N2CCCCC2)CCCCC1)c1ccc(OC(F)F)cc1`, inactive: -17.7%. Regarding `N#CC1(Nc2ccccc2)CCN(CCc2ccccc2)CC1`, the inhibition was inactive: -24.9%. Under `CCN1CCC(Nc2ccc(Cl)cc2)CC1` stands inactive: -9.6%; under `O=C(NCC1(N2CCCCC2)CCCCC1)c1cccc([N+](=O)[O-])c1`, inactive: 7.57%. The result for `CSc1ccc(C(=O)NCC2(N3CCOCC3)CCCCC2)cc1` reads inactive: -5.8%; that for `O=C(NCC1(N2CCCCC2)CCCCC1)c1cccc(C(F)(F)F)c1`, inactive: -19.6%. As for `COc1cc(C(=O)NCC2(N3CCCCC3)CCCCC2)ccc1OC(F)F`, the inhibition is inactive: -19.8%. Under `O=C(NCC1(N2CCOCC2)CCCCC1)c1cc(=O)[nH]c2ccccc12` stands inactive: -9.88%; under `CN1CCN(CCOC(=O)C(O)(c2ccccc2)c2ccccc2)CC1`, inactive: -12.4%. Under `COc1ccc(NC2CCN(C(=O)OC(C)(C)C)CC2)cc1` stands inactive: 4.6%.

Consider `CC(C)c1ccc(C(=O)NCC2(N3CCOCC3)CCCCC2)cc1`, for which the inhibition was inactive: -2.88%. The result for `O=C1CCN(Cc2ccccc2)CC1` reads inactive: -7.62%. For the compound `CCOc1ccc(C)cc1CN(CCCl)CCCl`, the inhibition is inactive: -10.2%. With `COc1ccc(NC2CCN(CCc3ccccc3)CC2)c(OC)c1`, the inhibition was inactive: -2.1%.

Take `CCOC(=O)N1CCC(Nc2ccc(F)cc2)CC1`: the inhibition is inactive: -6.74%. The result for `O=C(NCC1(N2CCCCC2)CCCCC1)c1ccc(F)cc1` reads inactive: 3.24%. The result for `O=P1(N(CCCl)CCCl)SCCCS1` reads inactive: -3.34%; that for `CCCCOc1ccc(C(=O)NCC2(N3CCOCC3)CCCCC2)cc1`, inactive: -7.73%. As for `COc1cc(C(=O)NCC2(N(C)C)CCCCC2)ccc1OC(F)F`, the inhibition was inactive: 0.12%. The result for `CCOC(=O)N1CCC(Nc2cccc(C)c2)CC1` reads inactive: -5.03%; that for `COc1ccc(C(=O)NCC2(N3CCCCC3)CCCCC2)c(OC)c1OC`, inactive: -7.01%. As to `CC(C)(C)OC(=O)N1CCC(N(C(=O)c2ccccc2)c2ccc(F)cc2)CC1`, the inhibition was inactive: -7.12%.

For `COc1ccc(C(=O)NCC2(N3CCCCC3)CCCCC2)cc1`, the inhibition is inactive: -5.02%. The result for `O=C(NCC1(N2CCCCC2)CCCCC1)c1cccs1` reads inactive: 7.35%. Turning to `O=C(NCC1(N2CCCCC2)CCCCC1)c1ccc(=O)[nH]c1`, the inhibition was inactive: -0.14%. The result for `Cc1cccc(NC2(C#N)CCN(Cc3ccccc3)CC2)c1` reads inactive: -12.3%. The result for `CSc1ccccc1C(=O)NCC1(N2CCCCC2)CCCCC1` reads inactive: -6.09%; that for `Cc1cc(C)cc(N(C(=O)c2ccccc2)C2CCN(C(=O)OC(C)(C)C)CC2)c1`, inactive: 0.01%. Under `O=C(NCC1(N2CCCCC2)CCCCC1)c1ccc(Cl)nc1` stands inactive: -8.04%; under `O=C(NCC1(N2CCOCC2)CCCCC1)c1cc2ccccc2o1`, inactive: -4.54%; under `COc1ccc(Cl)cc1C(=O)NCC1(N2CCOCC2)CCCCC1`, inactive: -2.3%. Consider `O=C(OC1CN2CCC1CC2)C1c2ccccc2Oc2ccccc21` (centres undefined), for which the inhibition was inactive: -2.87%. Under `O=C(NCC1(N2CCCCC2)CCCCC1)c1ccc(Cl)s1` stands inactive: -7.56%; under `N#CC1(Nc2ccccc2)CCN(Cc2ccccc2)CC1`, inactive: -7.57%. The result for `CCOC(=O)N1CCC(Nc2ccc(OC)cc2)CC1` reads inactive: -3.23%.

For orientation: inhibition means the change of the read-out against control, counted positive when it falls.
